Measured values from patent US5652366A, “DI (1R)-(-)camphosulfonic acid) salt, preparation thereof and use thereof” (Rhone-Poulenc Rorer Pharmaceuticals Inc., priority 1995, dated 1997).

By UniProt entry, the sequences of proteins in these tests, tags left out.
UniProt P30543, whole entry: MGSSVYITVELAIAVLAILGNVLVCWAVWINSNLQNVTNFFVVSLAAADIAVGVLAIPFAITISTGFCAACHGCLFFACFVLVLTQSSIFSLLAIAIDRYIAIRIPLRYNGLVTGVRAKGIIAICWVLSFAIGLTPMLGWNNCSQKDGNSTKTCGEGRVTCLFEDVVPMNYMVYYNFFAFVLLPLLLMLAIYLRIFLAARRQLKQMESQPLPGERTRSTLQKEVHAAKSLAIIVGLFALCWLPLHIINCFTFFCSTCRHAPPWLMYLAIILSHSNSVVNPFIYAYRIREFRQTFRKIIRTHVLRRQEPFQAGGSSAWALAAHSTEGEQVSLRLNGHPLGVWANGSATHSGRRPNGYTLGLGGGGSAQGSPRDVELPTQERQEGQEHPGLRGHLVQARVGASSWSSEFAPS

Target: A2 adenosine receptor (Rattus norvegicus, UniProt P30543)
Experiment: biochemical
Type: binding

## C[C@H](Cc1ccccc1)Nc1ncnc2c1ncn2[C@@H]1O[C@H](CO)[C@@H](O)[C@H]1O [R-PIA, R-phenylisopropyladenosine, reference compound]
  IC50: 300 nM
